In ChEMBL document CHEMBL4480430, “Advances in inhibition of protein-protein interactions targeting hypoxia-inducible factor-1 for cancer therapy” (Bioorg Med Chem, 2019) one finds Kd data, which are given here for one molecule.

The chains behind the UniProt entries cited, without tags or fusion partners.
UniProt Q09472, whole entry: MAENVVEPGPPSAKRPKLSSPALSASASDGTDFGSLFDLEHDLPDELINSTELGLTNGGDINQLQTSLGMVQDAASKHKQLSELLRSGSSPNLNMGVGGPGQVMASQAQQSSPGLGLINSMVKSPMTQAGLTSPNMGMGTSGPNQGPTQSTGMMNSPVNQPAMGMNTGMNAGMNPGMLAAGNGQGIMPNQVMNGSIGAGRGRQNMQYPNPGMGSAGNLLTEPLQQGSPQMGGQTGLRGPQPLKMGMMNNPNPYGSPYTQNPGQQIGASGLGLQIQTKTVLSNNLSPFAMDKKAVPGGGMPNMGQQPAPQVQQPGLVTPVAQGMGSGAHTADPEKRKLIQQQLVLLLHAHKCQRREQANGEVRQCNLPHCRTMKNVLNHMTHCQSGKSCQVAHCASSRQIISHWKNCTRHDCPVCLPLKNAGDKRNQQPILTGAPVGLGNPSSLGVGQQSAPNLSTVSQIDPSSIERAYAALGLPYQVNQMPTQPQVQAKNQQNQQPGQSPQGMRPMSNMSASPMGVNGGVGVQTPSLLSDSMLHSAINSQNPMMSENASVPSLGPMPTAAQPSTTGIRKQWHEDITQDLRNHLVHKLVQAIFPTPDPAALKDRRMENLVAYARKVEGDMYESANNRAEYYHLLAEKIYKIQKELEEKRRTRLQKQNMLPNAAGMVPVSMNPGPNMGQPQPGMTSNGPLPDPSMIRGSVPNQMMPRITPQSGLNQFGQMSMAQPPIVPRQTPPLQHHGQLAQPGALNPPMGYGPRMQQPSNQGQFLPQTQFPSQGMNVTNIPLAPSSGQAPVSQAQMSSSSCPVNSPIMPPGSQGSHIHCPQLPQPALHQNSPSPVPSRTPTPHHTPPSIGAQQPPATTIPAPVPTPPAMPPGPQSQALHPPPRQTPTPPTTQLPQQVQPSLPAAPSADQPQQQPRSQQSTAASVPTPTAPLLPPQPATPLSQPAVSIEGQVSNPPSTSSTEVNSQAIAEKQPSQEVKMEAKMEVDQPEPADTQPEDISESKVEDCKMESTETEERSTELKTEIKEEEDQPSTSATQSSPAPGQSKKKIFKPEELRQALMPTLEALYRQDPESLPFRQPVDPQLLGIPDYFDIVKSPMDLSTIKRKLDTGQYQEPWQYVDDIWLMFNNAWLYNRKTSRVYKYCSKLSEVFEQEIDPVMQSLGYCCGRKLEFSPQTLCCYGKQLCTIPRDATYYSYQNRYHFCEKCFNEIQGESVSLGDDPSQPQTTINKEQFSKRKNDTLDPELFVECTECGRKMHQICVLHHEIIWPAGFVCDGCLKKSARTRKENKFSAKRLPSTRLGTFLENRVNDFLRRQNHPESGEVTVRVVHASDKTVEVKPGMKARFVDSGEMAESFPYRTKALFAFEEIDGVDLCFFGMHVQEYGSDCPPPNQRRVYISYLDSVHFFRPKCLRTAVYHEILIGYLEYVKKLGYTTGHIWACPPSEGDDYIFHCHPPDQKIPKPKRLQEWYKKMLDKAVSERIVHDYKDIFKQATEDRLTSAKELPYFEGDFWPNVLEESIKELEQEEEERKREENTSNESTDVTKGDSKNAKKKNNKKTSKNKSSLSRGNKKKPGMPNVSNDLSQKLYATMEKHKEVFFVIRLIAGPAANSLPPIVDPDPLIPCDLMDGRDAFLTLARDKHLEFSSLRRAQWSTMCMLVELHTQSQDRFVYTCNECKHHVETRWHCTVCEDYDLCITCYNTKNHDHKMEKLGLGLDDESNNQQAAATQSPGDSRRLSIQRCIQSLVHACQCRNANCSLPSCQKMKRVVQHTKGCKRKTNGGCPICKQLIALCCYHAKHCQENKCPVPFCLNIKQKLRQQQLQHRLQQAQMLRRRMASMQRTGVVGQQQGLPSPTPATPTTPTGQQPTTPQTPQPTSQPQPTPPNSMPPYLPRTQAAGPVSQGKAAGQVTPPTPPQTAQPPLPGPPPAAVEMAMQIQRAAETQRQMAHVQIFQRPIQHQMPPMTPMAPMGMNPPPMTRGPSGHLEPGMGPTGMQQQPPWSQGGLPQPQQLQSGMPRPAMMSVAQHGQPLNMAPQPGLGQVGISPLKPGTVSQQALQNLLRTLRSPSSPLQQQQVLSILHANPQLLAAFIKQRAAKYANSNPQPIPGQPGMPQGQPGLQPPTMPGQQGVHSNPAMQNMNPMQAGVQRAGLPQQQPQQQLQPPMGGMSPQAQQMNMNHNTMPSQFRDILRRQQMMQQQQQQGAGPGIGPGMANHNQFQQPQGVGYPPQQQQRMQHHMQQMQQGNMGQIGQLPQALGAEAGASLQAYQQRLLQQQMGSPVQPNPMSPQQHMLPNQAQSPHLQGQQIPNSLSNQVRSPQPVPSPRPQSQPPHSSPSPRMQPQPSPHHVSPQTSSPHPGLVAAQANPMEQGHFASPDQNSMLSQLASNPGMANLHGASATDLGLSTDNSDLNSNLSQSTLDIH

Structures are written as SMILES.

The target of experiment [1] is T1, Histone acetyltransferase p300 (Homo sapiens, UniProt Q09472). The experiment in a line: Binding affinity to p300 (unknown origin) by fluorescence anisotrophy.
Experiment [2] deals with T1, Histone acetyltransferase p300. The experiment in a line: Binding affinity to p300 (unknown origin) by ITC assay.

With `CC[C@H](C)[C@H](NC(=O)[C@@H]1CCCN1C(=O)[C@H](C)NC(=O)[C@H](CC(N)=O)NC(=O)[C@@H](NC(=O)[C@H](CCC(=O)O)NC(=O)[C@H](CS)NC(=O)[C@H](CC(=O)O)NC(=O)[C@H](Cc1ccc(O)cc1)NC(=O)[C@H](CO)NC(=O)[C@@H](NC(=O)[C@H](CC(C)C)NC(=O)[C@H](CCC(N)=O)NC(=O)[C@@H]1CCCN1C(=O)[C@H](CC(C)C)NC(=O)CNC(=O)[C@H](CO)NC(=O)[C@H](CCC(=O)O)NC(=O)[C@H](CC(=O)O)NC(=O)[C@H](CCSC)NC(=O)[C@@H](N)CO)[C@@H](C)O)C(C)C)C(=O)N[C@@H](CCC(N)=O)C(=O)NCC(=O)N[C@@H](CO)C(=O)N[C@@H](CCCNC(=N)N)C(=O)N[C@@H](CC(N)=O)C(=O)N[C@@H](CC(C)C)C(=O)N[C@@H](CC(C)C)C(=O)N[C@@H](CCC(N)=O)C(=O)NCC(=O)N[C@@H](CCC(=O)O)C(=O)N[C@@H](CCC(=O)O)C(=O)N[C@@H](CC(C)C)C(=O)N[C@@H](CC(C)C)C(=O)N[C@@H](CCCNC(=N)N)C(=O)N[C@@H](C)C(=O)N[C@@H](CC(C)C)C(=O)N[C@@H](CC(=O)O)C(=O)N[C@@H](CCC(N)=O)C(=O)N[C@H](C(=O)N[C@@H](CC(N)=O)C(=O)O)C(C)C`, the Kd amounted to 16 nM in experiment [1] and 45 nM in experiment [2].
